How the values were obtained:
[1] = target: Tubulin beta chain (Bos taurus) (UniProt Q6B856); experiment: Percentage inhibition of colchicine binding to tubulin.; parameters: concentration or dose not given beside the values; settings: concentration not given here
[2] = target: T1, Estrogen receptor (Rattus norvegicus) (UniProt P06211+Q62986); experiment: Relative binding affinity (RBA) for estrogen receptor at 25 degree C; format: protein assay
[3] = target: T1, Estrogen receptor (Rattus norvegicus); experiment: Relative binding affinity (RBA) for estrogen receptor at 0C; format: protein assay

Chains of the proteins cited; added tags and fusions are not shown.
UniProt Q6B856, whole entry: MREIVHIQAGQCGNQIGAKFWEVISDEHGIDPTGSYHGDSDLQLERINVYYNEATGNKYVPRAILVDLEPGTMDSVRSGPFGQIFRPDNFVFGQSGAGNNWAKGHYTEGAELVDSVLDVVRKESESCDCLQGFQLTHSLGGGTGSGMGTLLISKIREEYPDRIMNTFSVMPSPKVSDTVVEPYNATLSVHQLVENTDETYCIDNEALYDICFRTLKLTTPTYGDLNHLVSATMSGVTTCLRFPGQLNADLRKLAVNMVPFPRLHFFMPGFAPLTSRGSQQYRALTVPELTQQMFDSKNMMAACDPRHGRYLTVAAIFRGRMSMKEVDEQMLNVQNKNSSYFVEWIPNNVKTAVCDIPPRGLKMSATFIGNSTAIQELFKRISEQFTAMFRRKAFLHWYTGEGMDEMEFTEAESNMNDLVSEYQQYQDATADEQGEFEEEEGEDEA
UniProt P06211, whole entry, looked up: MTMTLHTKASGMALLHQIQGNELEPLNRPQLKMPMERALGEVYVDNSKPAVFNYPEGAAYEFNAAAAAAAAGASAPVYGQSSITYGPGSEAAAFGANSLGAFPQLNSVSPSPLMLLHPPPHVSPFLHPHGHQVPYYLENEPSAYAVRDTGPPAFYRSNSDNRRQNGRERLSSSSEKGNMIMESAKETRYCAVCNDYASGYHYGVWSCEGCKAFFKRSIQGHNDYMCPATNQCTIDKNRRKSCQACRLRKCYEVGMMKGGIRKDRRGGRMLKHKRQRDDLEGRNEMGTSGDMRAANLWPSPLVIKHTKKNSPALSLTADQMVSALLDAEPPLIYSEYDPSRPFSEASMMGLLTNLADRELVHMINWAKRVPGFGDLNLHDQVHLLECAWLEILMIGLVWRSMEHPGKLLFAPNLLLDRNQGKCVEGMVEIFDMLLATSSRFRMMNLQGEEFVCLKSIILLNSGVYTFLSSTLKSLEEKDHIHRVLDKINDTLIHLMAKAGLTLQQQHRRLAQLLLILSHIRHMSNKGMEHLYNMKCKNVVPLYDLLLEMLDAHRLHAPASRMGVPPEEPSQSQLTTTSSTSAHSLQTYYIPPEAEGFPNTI
UniProt Q62986, whole entry, looked up: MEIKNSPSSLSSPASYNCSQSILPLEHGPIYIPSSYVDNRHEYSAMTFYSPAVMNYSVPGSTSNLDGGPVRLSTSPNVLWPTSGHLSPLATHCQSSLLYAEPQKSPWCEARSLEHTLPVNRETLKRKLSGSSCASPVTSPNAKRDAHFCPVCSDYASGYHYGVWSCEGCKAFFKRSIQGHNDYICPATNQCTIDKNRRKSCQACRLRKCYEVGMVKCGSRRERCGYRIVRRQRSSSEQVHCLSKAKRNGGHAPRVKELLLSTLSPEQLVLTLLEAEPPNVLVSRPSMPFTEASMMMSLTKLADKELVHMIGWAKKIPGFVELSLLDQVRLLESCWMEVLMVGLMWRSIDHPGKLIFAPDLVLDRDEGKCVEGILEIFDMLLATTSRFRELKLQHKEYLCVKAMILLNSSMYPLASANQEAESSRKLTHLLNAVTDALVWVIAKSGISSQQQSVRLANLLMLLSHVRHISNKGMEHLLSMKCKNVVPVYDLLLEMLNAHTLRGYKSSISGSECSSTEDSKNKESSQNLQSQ

Row | Structure (SMILES) | inhibition [1] [%] | RBA [2] | RBA [3]
1 | CCSc1cc2c(cc1O)CC[C@@H]1[C@@H]2CC[C@]2(C)[C@@H](O)CC[C@@H]12 | 18 | 0.235 | 0.285
2 | CCOc1cc2c(cc1O)CC[C@@H]1[C@@H]2CC[C@]2(C)[C@@H](O)CC[C@@H]12 | 71 | 0.02 | 

— ChEMBL document CHEMBL1128390, “Synthesis, antitubulin and antimitotic activity, and cytotoxicity of analogs of 2-methoxyestradiol, an endogenous mammalian metabolite of estradiol that inhibits tubulin polymerization by binding to the colchicine binding site” (J Med Chem, 1995)
